# Earlier results in patent US7795302B2, “Use of compositions for treating rosacea” (The Regents of the University of Michigan, priority 2001, dated 2010).
# Tested on: NF-KB
structure (smiles),measurement,value
CCCCC/C=C\C/C=C\C/C=C\C/C=C\CCCCOP(=O)(F)OC (stereo not shown),effect on TNF-induced NF-KB activation,inhibited
